The numbers were not newly measured in patent US9132083B2, “Delivery system comprising a silicon-containing material” (SISAF Ltd., priority 2009, dated 2015), which cites them from elsewhere.

Where two headings read alike, the source gives them in different places.

The conditions of series [1]: for Amount of OSA production (Theoretical value): theoretical limit without stabiliser, corresponds to 10^-4 M OSA.

In the case of orthosilicic acid, the pKa result is given as “around 9.8”. Under “25° C.”, the pKa1 is on record as 9.84 and the pKa2 is 13.2. Moreover, the “OSA concentration over which polymerisation proceeds rapidly” value in series [1] (absence of a stabiliser) was 10^−4 M. Moreover, the “concentration limit of a pure solution containing only silicic acid (above it PolySA species form)” value in series [1] (no stabiliser) is recorded as “around 10^−4 Mol·L^−1”. Besides, in series [1], the “Amount of OSA production (Theoretical value)” value is on record as 0.48 mg/50 ml. In addition, the “Amount of OSA production (Theoretical value)” value in series [1] (starting silicon 2.9 mg/L) was 9.6 mg/L.
